Data as given in patent US11986493B2, “Inorganic nitrite to improve cardiopulmonary hemodynamics” (University of Pittsburgh—Of the Commonwealth System of …, priority 2013, dated 2024).

Test system: subjects with pulmonary hypertension (WHO group I PAH, WHO group III PH)
Assay: Right heart catheterization: right heart/pulmonary artery hemodynamics, thermodilution cardiac output, PVR and SVR after inhaled NO and nebulized nitrite
Type: in vivo, human
Settings: patients with PH (WHO Group 1 and Group 3; n=6), inhaled doses of 45 mg and 90 mg

Compound: O=NO [nitrite, sodium nitrite]
- pulmonary vascular resistance (PVR): dose-dependent reduction
- systemic vascular resistance (SVR) (in most patients, listed as inhaled nitrite): without significantly altering; also recorded: does not significantly affect
- cardiac index (listed as inhaled nitrite): dose-dependent improvements

Entries after “also recorded” stand apart in the source; their conditions may differ.
